Several values for one entry are separate records, joined by “and”; a condition that tells them apart may be missing. Equal values may be shown once.
Biological target: horseradish peroxidase labeled streptavidin (SA-HRP) (Armoracia rusticana, UniProt P00433)
Test: Dot blot assay on nitrocellulose membrane, film densitometry (relative intensity)
Type: biochemical

Protein sequences, listed by entry. Tags and fused reporters are not part of them. Residues count along the entry.
UniProt P00433, 31-338 limits assumed: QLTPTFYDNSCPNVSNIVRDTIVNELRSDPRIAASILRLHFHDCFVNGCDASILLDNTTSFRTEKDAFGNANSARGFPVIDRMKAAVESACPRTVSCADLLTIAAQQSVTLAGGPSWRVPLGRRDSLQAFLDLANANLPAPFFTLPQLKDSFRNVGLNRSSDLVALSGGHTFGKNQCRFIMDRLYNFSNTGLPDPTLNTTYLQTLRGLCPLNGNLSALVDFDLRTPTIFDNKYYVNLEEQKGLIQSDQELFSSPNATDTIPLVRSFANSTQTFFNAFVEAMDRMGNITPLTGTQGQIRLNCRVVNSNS

For “Sodium phenothiazine 10-yl propane sulfonate [Azine Enhancer 1c]”, the “Net Relative Intensity at 100 pg SA-HRP” value was 2,356,176 and 2,314,240 and the “Net Relative Intensity at 1000 pg SA-HRP” value was 8,426,960 and 8,763,560.

Source: patent US20020192736A1, “Assay of peroxidase activity” (Pierce Chemical Company, priority 2001, published 2002)
